# Assay results: article PMC10897015, “Investigation of anti-nociceptive, anti-inflammatory potential and ADMET studies of pure compounds isolated from Isodon rugosus Wall. ex Benth” (Frontiers in Pharmacology, 2024)
# Marks after values point to notes of the source that are not given here.
# Tested on: Swiss albino mice
# Experiment: Formalin test with opioid receptor involvement
# Details: compounds 50 mg/kg, Mor 5 mg/kg, Nal 1 mg/kg; for Total time spent in licking, % inhibition (0–5 min): first phase; for Total time spent in licking, % inhibition (15–30 min): second phase
compound,measurement,setting,value
"CN1CC[C@]23c4c5ccc(O)c4O[C@H]2[C@@H](O)C=C[C@H]3[C@H]1C5 [Mor, morphine, reference compound]","Total time spent in licking, % inhibition (0–5 min)",,84.99^### %
same,"Total time spent in licking, % inhibition (0–5 min)",listed as morphine,84.99%
same,"Total time spent in licking, % inhibition (15–30 min)",,91.33^### %
same,"Total time spent in licking, % inhibition (15–30 min)",listed as morphine,91.33%
